Test results as given in KR20220081857A.

Columns and labels:
[1] = biological target: 인간 TNFα (ACROBiosystems TNF-H5228) (human) (UniProt P01375); test: cell-based or functional assay
[2] = biological target: 인간 OX40L 단백질 (OX40L-his; ACROBiosystems Cat# OXL-H52Q8) (human) (UniProt P23510); test: cell-based or functional assay

reference 항 TNFα 항체 Ref. TNFαi (Humira VH/VL) (antibody)
IC50 (nM), TNFα blockade assay [1]: 0.063 nM

이중 특이성 항체 TNFαi-I3F07 HC (bispecific antibody)
IC50 (nM), OX40L blockade assay [2]: 0.8 nM
IC50 (nM), TNFα blockade assay [1]: 0.054 nM

이중 특이성 항체 TNFαi-02C09 HC (bispecific antibody)
IC50 (nM), TNFα blockade assay [1]: 0.057 nM
